Compound activity from PubChem BioAssay.
GIV-Gai inh = inhibitors of GIV GBA-motif binding to rat Galpha-i3; P08753; Galpha-i3/FITC-GIV peptide fluorescence polarization, 90 min; hits give low values; scaled: aluminum fluoride 0%, vehicle 100%; percent of control (FP), % (test concentration not listed); AID 1224905; hit rate 0.42% among 210,000;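 active = replicate mean at 85% of control or lower, very high polarization wells dropped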;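 note: wells of about 15 µL received 100 nL stock; the first replicate is given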
HCMV NEC inh = inhibitors of HCMV UL50-UL53 interaction, biochemical, HTRF; normalized percent inhibition; inhibition, % (concentration not given with the values); actives 0.15% (n = 190,000); in the data active = inhibition above about 27%, passing the limit was not always enough
GIV-Gai FP conf = inhibitors of GIV peptide binding to Galpha-i3, confirmation, biochemical, fluorescence polarization, FITC-GIV peptide, rat Galphai3; shares compounds with GIV-Gai inh; stronger effect = lower value; fluorescence polarization, mP at 100 µM; actives 38% (n = 580);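 active = inhibition score of 15 or more, meaning 100 minus mean polarization as percent of control over three replicates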
GIV Gai AS conf = inhibitors of GIV binding to Galpha-i3, confirmation, orthogonal assay for GIV-Galpha-i inhibitor project, biochemical, AlphaScreen, His-GIV, GST-Galphai3; shares compounds with GIV-Gai inh; purified proteins, 90 min; stronger effect = lower value; AlphaScreen counts at 100 µM; actives 39% (n = 580); AID 1259351, 2017;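 active = inhibition score at or above a set limit, where the score is 100 minus the three-replicate mean percent of control signal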
Each line names hits and unclear results; the compound was inactive in the other large screens (follow-up assays come after a bar, where they were run). Only some compounds are listed: those with a hit (about 0.46% of all), similar ones and a draw of the others.

CC(=O)Nc1cnn(-c2ccccc2)c(=O)c1Cl	none
CC1=CC(=Nc2c(C)n(C)n(-c3ccccc3)c2=O)c2ccccc2C1=O	none
Cc1c(N=c2c(=O)c3ccccc3c2=O)c(=O)n(-c2ccccc2)n1C	GIV-Gai inh 62 (no result: HCMV NEC inh) | GIV-Gai FP conf 47 | GIV Gai AS conf inactive
CCn1c(=O)n(CC(=O)Nc2nc3c(C)cccc3s2)c(=O)c2ccccc21	none (no result: HCMV NEC inh)
CC(=O)Nc1cc(OC(C)=O)c2nonc2c1OC(C)=O	GIV-Gai inh -28, HCMV NEC inh 101 | GIV-Gai FP conf 16 | GIV Gai AS conf 3290
CC(=O)Nc1nonc1NC(C)=O	none
CCOc1ccc2c(c1)C(=C1SC(C(=O)OC)=C(C(=O)OC)S1)C(=S)C(C)(C)N2C(=O)C1CC1	none (no result: HCMV NEC inh)
O=c1c(=NNc2nn[nH]n2)c(=O)c2ccccc12	GIV-Gai inh 40 | GIV-Gai FP conf 39 | GIV Gai AS conf 17853
O=c1c(=NNc2ccccc2)c(=O)c2ccccc12	none
COc1ccc(-c2nn(CN(C)C3CCCCC3)c(=S)n2CC2CCCO2)cc1 (stereo not drawn)	none (no result: GIV-Gai inh)
O=C(NCCc1ccccc1)NCCn1c(C(F)(F)F)nc2cccnc21	none
COC(=O)CNC(=O)NCCCn1c(C(F)(F)F)nc2cccnc21	GIV-Gai inh 80 | GIV-Gai FP conf 59 | GIV Gai AS conf inactive
CCSc1ncc2c(=O)n(CC(=O)N3CCCc4ccccc43)cnc2n1	none
COC(=O)c1ccc2nsnc2c1	none (no result: HCMV NEC inh) | GIV-Gai FP conf inactive | GIV Gai AS conf inactive
CCOC(=O)c1ccc2nsnc2c1	none
CCc1nc2oc(C(=O)c3ccc(Cl)cc3)c(N)c2c2c1COC(C)(C)C2	GIV-Gai inh 80 | GIV-Gai FP conf inactive | GIV Gai AS conf inactive
CCc1nc2oc(C(=O)c3ccccc3)c(N)c2c2c1COC(C)(C)C2	none (no result: HCMV NEC inh)
CCCc1ccc(OCC(O)CN2CCN(C)CC2)cc1 (stereo not drawn)	none (no result: GIV-Gai inh)
Cc1cc(C)cc(NC(=O)COc2ccccc2C)c1	none (no result: GIV-Gai inh)
O=C(O)C1CCN(c2ncnc3nc[nH]c23)CC1	none
O=c1cc(-c2ccccc2)oc2cc(Cl)ccc12	none (no result: GIV-Gai inh)
Nc1cc(N)c2cc(-c3ccccc3)oc2c1	GIV-Gai inh 81, HCMV NEC inh 95 | GIV-Gai FP conf inactive | GIV Gai AS conf inactive
CCOc1ccc(C2C3CN(CC)CC=C3C(C#N)=C(N)C2(C#N)C#N)cc1 (stereo not drawn)	none (no result: HCMV NEC inh)
CCCN1CCC2(CC1)C1CN(CCC)CC=C1C(C#N)=C(N)C2(C#N)C#N (stereo not drawn)	none | GIV-Gai FP conf inactive | GIV Gai AS conf inactive
COc1cccc(NC(=O)c2sc3nc4c(c(-c5ccco5)c3c2N)CCC4)c1	GIV-Gai inh 85 (no result: HCMV NEC inh) | GIV-Gai FP conf inactive | GIV Gai AS conf inactive
Nc1c(C(=O)N2CCOCC2)sc2nc(-c3cccs3)cc(C(F)(F)F)c12	none (no result: HCMV NEC inh)
Nc1c(C(=O)NC2CC2)sc2nc(-c3cccs3)cc(C(F)(F)F)c12	GIV-Gai inh 45 (no result: HCMV NEC inh) | GIV-Gai FP conf inactive | GIV Gai AS conf inactive
COc1cccc(NC(=O)c2sc3nc4c(c(-c5ccc(C)o5)c3c2N)CCCC4)c1	none (no result: HCMV NEC inh)
Nc1c(C(=O)N2CCCCC2)sc2nc(-c3cccs3)cc(C(F)(F)F)c12	none (no result: GIV-Gai inh)
COc1ccc(NC(=O)c2sc3nc(-c4cccs4)cc(C(F)(F)F)c3c2N)cc1	GIV-Gai inh 75 (no result: HCMV NEC inh) | GIV-Gai FP conf inactive | GIV Gai AS conf inactive
COc1ccc(NC(=O)c2sc3nc(C)cc(C(F)(F)F)c3c2N)cc1	none (no result: HCMV NEC inh)
Cc1cc(C(F)(F)F)c2c(N)c(C(=O)Nc3ccc(F)cc3)sc2n1	GIV-Gai inh 61 | GIV-Gai FP conf inactive | GIV Gai AS conf inactive
CCn1c(=O)c(CNc2ccc(N3CCC(O)CC3)cc2)cc2cc(OC)ccc21	none
CC1(C)CC(=O)C2=C(C1)Nc1ccccc1NC2c1coc2c(Cl)cc(Cl)cc2c1=O (stereo not drawn)	none
O=C1C2C3C=CC(O3)C2C(=O)N1c1cc([N+](=O)[O-])ccc1Cl (stereo not drawn)	none
COc1ccc(S(=O)(=O)Nc2ccc(N3CCCS3(=O)=O)cc2)cc1	none
COc1ccc(NC(=O)c2sc3nc4c(c(-c5ccc(OC)cc5)c3c2N)C(=O)CC(C)(C)C4)cc1	GIV-Gai inh 70 | GIV-Gai FP conf inactive | GIV Gai AS conf inactive
CCc1c(C#N)c(N)nc2sc(C(=O)Nc3ccc(Br)cc3)c(N)c12	none (no result: GIV-Gai inh)
COc1ccc(-c2c3c(nc4sc(C(=O)Nc5cccc(OC)c5)c(N)c24)CC(C)(C)CC3=O)cc1	none
